Values quoted from earlier work as cited in paper PMC5575935.

Sequences of proteins named here, by UniProt entry; tags and fusion partners are left off. Residues count along the entry.
UniProt Q07817, whole entry: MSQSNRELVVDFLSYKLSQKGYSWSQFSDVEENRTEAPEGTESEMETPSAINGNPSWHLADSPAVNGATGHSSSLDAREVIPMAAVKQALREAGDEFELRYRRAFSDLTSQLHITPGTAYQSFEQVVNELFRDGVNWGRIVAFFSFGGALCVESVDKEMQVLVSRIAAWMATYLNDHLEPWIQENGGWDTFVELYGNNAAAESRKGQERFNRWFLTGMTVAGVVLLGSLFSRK
UniProt Q16611, 2-211: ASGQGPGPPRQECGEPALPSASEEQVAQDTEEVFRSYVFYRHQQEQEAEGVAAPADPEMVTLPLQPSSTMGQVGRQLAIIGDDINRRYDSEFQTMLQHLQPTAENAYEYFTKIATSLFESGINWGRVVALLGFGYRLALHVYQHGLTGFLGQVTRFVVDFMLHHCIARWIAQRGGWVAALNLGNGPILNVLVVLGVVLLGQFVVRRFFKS

Biological target: Bcl-xL (Homo sapiens) (UniProt Q07817)

Bak peptide (from UniProt Q16611)
Kd: 480 nM
